Target: HDAC6 (Homo sapiens, UniProt Q9UBN7)
Test: HTRF saturation binding assay (terbium donor on protein, SiR acceptor)

Sequences of proteins named here, by UniProt entry; tags and fusion partners are left off.
UniProt Q9UBN7, whole entry: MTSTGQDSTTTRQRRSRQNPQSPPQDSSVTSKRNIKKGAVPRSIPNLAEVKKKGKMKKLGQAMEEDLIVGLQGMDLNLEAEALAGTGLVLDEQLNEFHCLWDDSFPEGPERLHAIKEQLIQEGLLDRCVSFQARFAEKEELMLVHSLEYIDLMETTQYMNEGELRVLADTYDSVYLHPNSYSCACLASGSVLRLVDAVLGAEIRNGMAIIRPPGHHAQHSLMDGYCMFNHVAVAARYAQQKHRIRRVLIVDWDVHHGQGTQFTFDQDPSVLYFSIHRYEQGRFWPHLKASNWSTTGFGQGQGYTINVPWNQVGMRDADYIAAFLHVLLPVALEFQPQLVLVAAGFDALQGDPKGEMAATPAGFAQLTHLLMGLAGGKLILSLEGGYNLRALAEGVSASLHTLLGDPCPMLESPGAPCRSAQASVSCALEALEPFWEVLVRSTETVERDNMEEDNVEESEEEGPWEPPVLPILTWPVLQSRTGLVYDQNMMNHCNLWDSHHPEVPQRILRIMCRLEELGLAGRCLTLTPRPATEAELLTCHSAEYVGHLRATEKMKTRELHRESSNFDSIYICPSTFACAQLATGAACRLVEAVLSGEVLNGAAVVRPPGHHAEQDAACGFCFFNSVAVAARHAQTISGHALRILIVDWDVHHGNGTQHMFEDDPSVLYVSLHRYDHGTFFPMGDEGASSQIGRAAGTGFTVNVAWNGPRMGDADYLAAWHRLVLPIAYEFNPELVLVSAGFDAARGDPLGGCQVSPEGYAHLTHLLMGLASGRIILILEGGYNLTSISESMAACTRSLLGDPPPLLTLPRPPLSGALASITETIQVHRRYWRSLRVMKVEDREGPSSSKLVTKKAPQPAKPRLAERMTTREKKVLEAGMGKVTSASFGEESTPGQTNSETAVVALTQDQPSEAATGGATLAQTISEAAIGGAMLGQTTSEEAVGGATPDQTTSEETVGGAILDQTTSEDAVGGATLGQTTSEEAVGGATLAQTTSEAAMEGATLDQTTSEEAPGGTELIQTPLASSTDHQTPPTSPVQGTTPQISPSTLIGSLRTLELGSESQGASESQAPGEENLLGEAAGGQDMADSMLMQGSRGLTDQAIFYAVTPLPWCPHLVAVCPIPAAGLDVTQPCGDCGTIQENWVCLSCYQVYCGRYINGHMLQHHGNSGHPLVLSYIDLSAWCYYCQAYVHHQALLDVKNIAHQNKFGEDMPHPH

CN(C)c1ccc2c(c1)[Si](C)(C)c1cc(N(C)C)ccc1C21OC(=O)c2ccc(C(=O)NCCCN(Cc3ccc(C(=O)NO)cc3)C(=O)Nc3ccccc3)cc21
Kd: 0.021 µM

Reference: paper PMC13307271, “A Highly Selective, Cell-Permeable Fluorescent Probe for Imaging Histone Deacetylase 6 in Live Cells” (Journal of the American Chemical Society, 2026)
